Assay results taken from BindingDB's records for doi:10.1016/j.chembiol.2011.05.012 (University of Bern, 2011).

Chains of the proteins cited; added tags and fusions are not shown.
UniProt P34972, whole entry: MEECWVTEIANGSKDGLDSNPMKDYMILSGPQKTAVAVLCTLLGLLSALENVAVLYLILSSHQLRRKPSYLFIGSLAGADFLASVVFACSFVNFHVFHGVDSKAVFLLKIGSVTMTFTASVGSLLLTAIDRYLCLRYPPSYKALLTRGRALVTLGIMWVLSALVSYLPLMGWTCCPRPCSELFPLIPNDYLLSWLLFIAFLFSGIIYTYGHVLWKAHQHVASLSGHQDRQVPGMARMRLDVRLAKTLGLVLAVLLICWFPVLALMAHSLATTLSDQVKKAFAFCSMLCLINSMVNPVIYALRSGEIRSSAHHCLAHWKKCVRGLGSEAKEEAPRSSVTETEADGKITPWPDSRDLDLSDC

Target: Cannabinoid receptor 2 (Homo sapiens, UniProt P34972)
Assay: Binding Assay
Source text: Binding assay with hCB1 and hCB2 receptors.

With `CCCCC/C=C/C/C=C/C/C=C/C/C=C/CCCC(=O)NCCO` [Arachidonoylethanolamide, AEA] the Ki was 278 nM.
